Molecules are shown by their SMILES.

The chains behind the UniProt entries cited, without tags or fusion partners.
UniProt P41143, whole entry, looked up: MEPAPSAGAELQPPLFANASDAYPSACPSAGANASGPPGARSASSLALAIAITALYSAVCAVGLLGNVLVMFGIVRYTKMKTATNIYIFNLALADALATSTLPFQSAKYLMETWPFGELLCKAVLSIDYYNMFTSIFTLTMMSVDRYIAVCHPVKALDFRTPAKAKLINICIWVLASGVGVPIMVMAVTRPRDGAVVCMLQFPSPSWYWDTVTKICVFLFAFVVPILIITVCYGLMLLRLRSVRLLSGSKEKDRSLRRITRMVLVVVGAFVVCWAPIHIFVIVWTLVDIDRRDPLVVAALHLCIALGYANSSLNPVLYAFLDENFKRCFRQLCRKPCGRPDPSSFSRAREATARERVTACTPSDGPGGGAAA

The assay addresses Delta-type opioid receptor (Homo sapiens) (UniProt P41143). The assay can be described thus: [35S]GTP-gamma-S, induced maximal stimulation ( E max ) Delta opioid receptor in guinea pig caudate membranes blocked with 20 nM NTI. As to conditions: Cavia porcellus. On the technique in general: Binding of GTPγS marks nucleotide exchange on a G protein.

Take `CN(C(=O)Cc1ccccc1)[C@H]1CC[C@@]2(CCCO2)C[C@@H]1N1CCCC1`: the Emax came to 178.

For the origin of these results see ChEMBL document CHEMBL1131860.
